## Antibody variant affinities, Ab-14 heavy chain, assay B

Values reported by Li et al. 2023, doi:10.1038/s41467-023-39022-2 (FLAb copy).

The target is the same throughout: PDVDLGDISGINAS, from the HR2 region of SARS-CoV-2 spike.

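This is the validation round: designs drawn from the data on random variants, tested in the same kind of assay. Their group label is 14H_Rand (Rand: our label for a block that the file lists under HC and that is probably the random mutants of the ten best first-round binders). In AlphaSeq, yeast of one mating type display the scFv and yeast of the other type display the target. Mating (16 h, 30 °C) was followed by selection of diploids and sequencing of their barcodes. A regression on co-assayed BCL2-family reference pairs converts the normalised counts of each replicate to an apparent Kd. The assay was run in six technical replicates.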

Parent scFv Ab-14: VH joined to VL by a (GGGGS)3 linker. Changes lie in the heavy chain CDRs alone.
VH: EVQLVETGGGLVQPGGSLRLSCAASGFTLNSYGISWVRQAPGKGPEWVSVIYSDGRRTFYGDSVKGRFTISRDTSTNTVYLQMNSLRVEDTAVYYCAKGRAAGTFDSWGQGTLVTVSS
VL: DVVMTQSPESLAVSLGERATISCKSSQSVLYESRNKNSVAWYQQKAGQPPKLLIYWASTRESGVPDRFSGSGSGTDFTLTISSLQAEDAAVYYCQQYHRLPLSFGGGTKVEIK

Substitutions are numbered in sequence along the VH above, starting at 1 (not Kabat).
The read-out is the apparent dissociation constant on a log10 scale (nM): the lower, the stronger.
An entry "ND" has no value in the source: the pair was not observed among the diploids in that replicate. This suggests poor binding but is not conclusive.
Values of this round are not directly comparable with the first-round values of the same sequences.
As a blank, each scFv also met three strains without target: over all heavy chain designs, 1% of these pairings were detected, typically at 2.08 and seldom below 0.84. The control count says in how many pairings with the empty strains this scFv gave a signal, with their mean in brackets.
The authors averaged sequences with at least three values out of six and counted those with two or fewer as poor binders.

| # | changes | log10 Kd (nM) by replicate | control signals |
|---|---|---|---|
| 1 | S31D+S53K+G103L+D106I | ND ND ND ND ND ND | 0 of 18 |
| 2 | S31Q+S35D+G61S+V64A+T104F | ND 1.46 ND ND ND ND | 0 of 18 |
| 3 | G61S+S63L+A102G | ND ND ND ND ND ND | 0 of 18 |
| 4 | S31D+D54N+F59Q+G61I | ND ND ND ND ND ND | 0 of 18 |
| 5 | G26D+S31F+G61S+A102R | ND ND ND ND ND 0.89 | 0 of 18 |
| 6 | S31E+R56G+F59H+G61T+A101E | 1.01 ND 0.70 1.57 1.82 1.80 | 0 of 18 |
| 7 | T28F+S31E+R100G+G103V+S107Q | ND ND ND ND ND ND | 0 of 18 |
| 8 | S53G+Y60D+S63A+F105N+D106K | ND ND ND ND ND ND | 0 of 18 |
| 9 | T28E+Y32G+G33M+T104W+D106N | ND ND ND ND ND ND | 0 of 18 |
| 10 | G26F+F27W+S31E+A102K+G103V+S107Q | ND ND ND ND ND ND | 0 of 18 |
| 11 | I34P+G61S+A102G+S107R | ND ND ND ND ND ND | 0 of 18 |
| 12 | N30D+V64E+F105A+D106L | ND ND ND ND ND ND | 1 of 18 (-0.99) |
| 13 | N30V+S31D+F59Q+G61I+A101C | ND ND ND ND ND ND | 0 of 18 |
| 14 | T28D+R100M+G103Y+T104W+F105Y+D106N | ND ND ND ND ND ND | 0 of 18 |
| 15 | R57Y+G61D+R100Q+A101L+S107T | ND ND ND ND ND ND | 0 of 18 |
| 16 | F27N+S31D+I51Y+F59Q+G61I | ND ND ND 3.01 ND ND | 0 of 18 |
| 17 | S31M+G61S+A102G+T104R | 1.48 0.54 1.19 0.50 0.32 1.79 | 0 of 18 |
| 18 | T28Q+T104W | ND ND ND ND ND ND | 0 of 18 |
| 19 | G55A+F59W+G61S+A102G | 1.82 1.16 1.33 1.46 3.86 ND | 0 of 18 |
| 20 | G61S+V64R+A101K+A102G | ND ND ND ND ND ND | 0 of 18 |
| 21 | S31D+D54H+G99D+G103L+D106I | ND ND ND ND ND ND | 0 of 18 |
| 22 | N30Q+S31E+S63Q+G103V+S107Q | 1.14 ND 0.34 0.15 -0.23 0.24 | 0 of 18 |
| 23 | S31Q+Y32H+D54C+G61S+T104F | ND ND ND ND ND ND | 0 of 18 |
| 24 | S53R+G61D+S63D+R100Q+A101L | ND ND ND ND ND ND | 0 of 18 |
| 25 | S31D+Y32P+G33S+S53A+F105N+D106K | ND ND ND ND ND ND | 0 of 18 |
| 26 | S31E+G103L+D106I | ND ND ND ND ND ND | 0 of 18 |
| 27 | N30Y+S31I+Y52R+G55F+G103V+S107Q | ND ND ND ND ND ND | 0 of 18 |
| 28 | N30D+Y32W+F105A+D106L | ND ND ND ND ND ND | 0 of 18 |
| 29 | L29R+S31Q+G61S+T104F+D106V | ND ND ND ND ND ND | 0 of 18 |
| 30 | N30D+I34N+G55M+R57T+T58K+F105A+D106L+S107T | ND ND ND ND ND ND | 0 of 18 |
| 31 | S31Q+G61S+G103F+T104F | ND ND ND ND ND ND | 0 of 18 |
| 32 | N30D+I34M+F105A+D106L | ND ND ND ND ND ND | 1 of 18 (1.04) |
| 33 | L29F+S31Q+I51Q+G61S+T104F | ND ND ND ND ND ND | 1 of 18 (-0.60) |
| 34 | S53A+T58A+A101L+F105N+D106K | ND ND ND ND ND ND | 0 of 18 |
| 35 | N30D+D54R+F105A+D106L | ND ND ND ND ND ND | 0 of 18 |
| 36 | G26L+F27Q+Y32P+Y60L+G61A+R100Q+A101L | ND ND ND ND ND ND | 0 of 18 |
| 37 | T28D+V64E+A102I+T104W+D106N | ND ND ND ND ND ND | 0 of 18 |
| 38 | G61D+V64A+G99M+R100Q+A101L+T104K | ND ND ND ND ND ND | 0 of 18 |
| 39 | S31E+G55S+G99S+G103V+S107Q | ND ND ND ND ND ND | 0 of 18 |
| 40 | T28D+T104W+F105C+D106N+S107K | ND ND ND ND ND ND | 0 of 18 |
| 41 | T28M+G33P+D54K+G61D+R100Q+A101L | ND ND ND ND ND ND | 0 of 18 |
| 42 | F27D+T58A+F59V+G61D+R100Q+A101L | ND ND ND ND ND ND | 0 of 18 |
| 43 | T28D+Y60Q+G61H+G99Y+T104W+D106N | ND ND ND ND ND ND | 0 of 18 |
| 44 | T58Q+G61S+A102G | ND ND ND ND ND ND | 0 of 18 |
| 45 | Y52I+R57P+G61D+R100Q+A101L+F105H | ND ND ND ND ND ND | 0 of 18 |
| 46 | T28F+G55K+S63I+A102W+T104W+D106N | ND ND ND ND ND ND | 0 of 18 |
| 47 | S31E+G61P+A101F+S107D | 2.00 ND ND 1.90 2.65 ND | 1 of 18 (2.04) |
| 48 | S31D+A101Q+G103V+S107Q | ND ND ND ND ND 2.14 | 0 of 18 |
| 49 | S31E+T58I+A101Y+G103V+S107D | ND ND ND ND ND ND | 0 of 18 |
| 50 | S53A+G55L+G103L+F105N+D106K+S107M | ND ND ND ND ND ND | 0 of 18 |
| 51 | S31E+I34W+Y52G+G103V+S107Q | ND ND ND ND ND ND | 0 of 18 |